According to PMC11876671, “Investigating blood–brain barrier penetration and neurotoxicity of natural products for central nervous system drug development” (Scientific Reports, 2025):

Assay: PAMPA-BBB permeability assay (stirring Double-Sink)
Settings: Table S3: compounds exhibiting low PAMPA-BBB permeability

SMILES: CC(=O)C1=CCCC2CCC1N2 (stereo not shown)
- PAMPA-BBB Pe(10^-6 cm/sec): 9.5 10^-6 cm/sec
